A selection: hits, their analogues and other compounds. The true share with any hit is near 1.7%.
PTHR1 agonist = agonists of human PTHR1 parathyroid hormone receptor. Q03431. HEK293 GP2 PTHR1 cells, GloSensor cAMP luminescence, 1 h. Potency, µM (highest dose often 115 µM), without a hit: at the highest dose activation, usual class: activators. actives 0.075% (n = 410,000). AID 743266; also: potency is read from the fitted curve at half-maximal effect; nearly all actives have a fitted effect of over 55% in size
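HEK-293-derived GP2 cells expressing PTHR1 and a GloSensor cAMP reporter, 3,000/well, plated overnight, given luciferin plus IBMX (each 0.5 mM as added) for 1 h at 37 °C, then compound for 1 h at 37 °C. Luminescence was read after 15 min at room temperature.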
Pin1 inhibitor = blocks the human prolyl isomerase Pin1. Q13526. Pin1 FP peptide displacement, HiFluor488, 10 min. Potency, µM (series often up to 115 µM), inactives show at the highest dose activity, negative = inhibition, hits mostly inhibitors. actives 0.009% (n = 390,000); active = well fitted inhibition curve with a large enough effect in the polarisation, with a control signal flat, not every such curve was filed as active; inconclusive = small, poorly fitted or top-dose-only effect, or effect the other way, or a change in a side signal; inactive = no such curve, though single readings can be large or run the other way; the % refers to the polarisation; also: potency is read from the fitted curve at half-maximal effect; % is scaled to controls: 0 for no effect and ±100 for the full control effect
GLP-1R inv ag = inverse agonists of human GLP-1 receptor | P43220 | HEK293 GLP-1R CRE-luciferase, luminescence, 24 h; GLP-1R form is constitutively active | AID 624417 | actives 1.6% (n = 410,000) | Potency, µM (highest dose often 38.3 µM), for the others: top-dose activity change, negative = inhibition, usual class: inhibitors; also: potency is read from the fitted curve at half-maximal effect; % is scaled to controls: 0 for no effect and ±100 for the full control effect; nearly all actives have a fitted effect of over 55% in size
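qHTS in 1536-well format: reporter HEK293 cells expressing constitutive GLP-1R activity in DMEM + 10% Nu serum, 24 hr with compounds at 37 deg C, luminescence read after 12 min with detection reagent.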
GLP1R ag = activates the human GLP-1 receptor. P43220. HEK293 GLP-1R CRE-luciferase, luminescence, 4-6 h; cells express a hypersensitive GLP-1R form. Potency, µM (titrated, usually from 45.6 µM), for inactives: at the top dose activation, most hits filed as activators. actives 0.007% (n = 380,000). AID 624172; also: potency is read from the fitted curve at half-maximal effect; % of control where 0% means no effect
miR-21 reporter = miR-21 reporter, rising signal; HeLa miR-21 FLuc reporter, luciferase, 48 h; Potency, µM (highest dose often 38.3 µM), for the others: top-dose reporter change, positive = more light; 340,000 tested, under 10 active; AID 2288; active = well fitted rising curve with a large enough effect; inconclusive = small, poorly fitted or top-dose-only effect; inactive = no such curve, though single readings can be large or run the other way;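 further: % of control where 0% means no effect; miR-21 action dims this reporter so a rising signal means less miR-21 action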
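Compounds were titrated across several concentrations (up to approximately 40 uM) and incubated 48 hours with HeLa miR-21-FLuc reporter cells (miR-21 target sequence downstream of FLuc, endogenous miR-21). Readout was firefly luciferase luminescence after lytic detection reagent.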
GLP1R cytotox = cytotoxicity in counter-screen for GLP-1R inverse agonists; HEK293 cAMP-luciferase reporter cells, luminescence, 24 h; Potency, µM (series often up to 38.3 µM), for the others: at the top dose activity change, negative = inhibition, actives largely listed as inhibitors; actives 0.13% (n = 410,000); AID 624418;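 also: loss of luciferase light is scored as toxicity; potency is read from the fitted curve at half-maximal effect; % is scaled to controls: 0 for no effect and ±100 for the full control effect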
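A 23 nL compound transfer followed 12 hours of cell culture at 37 deg C; exposure then lasted 24 hr. Luciferase assay detection reagent was dispensed and plates read for luminescence after a 12 min room-temperature wait.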
An asterisk follows results filed as active; i = inactive; ? = inconclusive; · = no result; [ ] = another dose, or the depositor's remark. Unless noted, calls follow the shape of the dose curve; as a rule, active = well fitted curve in the direction sought with a large enough effect; inconclusive = small, poorly fitted or top-dose-only effect, or another doubt; inactive = no such curve, though single readings can be large; an effect the other way counts as inactive or inconclusive.

nr | compound | PTHR1 agonist | Pin1 inhibitor | GLP-1R inv ag
1 | CC1CCCCN1C(=O)CSc1nc(C2CC2)nc2ccccc12 (stereo not given) | i | 1% | 7.9µM*
2 | Cc1ccc(Cc2nc3ccccc3nc2SCC(=O)N2CCCCC2)cc1 | -38% | 2% | ?
3 | Brc1ccc(-c2csc(N3CCC(c4nn[nH]n4)CC3)n2)cc1 | · | -19% | ·
4 | O[C@H]1C[C@H](c2ccccc2)N(CC2CCCCC2)C[C@@H]1n1cc(C2CC2)nn1 | -25% | · | 10µM*
5 | O[C@@H]1CN(CC2CCCCC2)[C@@H](c2ccccc2)C[C@H]1n1cc(C2CC2)nn1 | -39% | · | 4%
6 | Cc1ccc(S(=O)(=O)c2nnn3c2nc(NCc2cccs2)c2sccc23)cc1C | -19% | ? | 20%
7 | Cc1cc(O)c(/C=N/Nc2ccc(F)cc2)c(=O)o1 | i | 8% | 1.8µM*
8 | Cc1ccc(N/N=C/c2c(O)cc(C)oc2=O)cc1 | -5% | 12% | ?
9 | COc1ccc2[nH]c3c(c2c1)CNCC3 | i | · | -14%
10 | Clc1ccc2[nH]c3c(c2c1)CNCC3 | i | 0% | 10µM*
11 | COc1ccccc1NC(=O)c1ccccc1NS(=O)(=O)c1cccs1 | -25% | 1% | ?
12 | COc1ccc(C)cc1NC(=O)c1ccccc1NS(=O)(=O)c1ccc(Cl)s1 | -49% | -5% | 4µM*
13 | Cc1cc(S(=O)(=O)NCc2ccc(N3CCN(C)CC3)cc2)c(C)s1 | i | -16% | 2.2µM*
14 | CN1CCN(c2ccc(CNS(=O)(=O)c3ccc(F)cc3Cl)cc2)CC1 | -16% | -6% | ?
15 | O=C(Nc1ccc2nc(-c3cccs3)c(-c3cccs3)nc2c1)N1CCCCC1 | · | -3% | ·

nr | GLP1R ag | miR-21 reporter | GLP1R cytotox
1 | 16% | 17% | ?
2 | · | 20% | -1%
3 | · | · | ·
4 | -2% | · | ?
5 | -2% | · | -5%
6 | · | -26% | 6%
7 | 4% | -2% | ?
8 | -29% | -22% | -17%
9 | 2% | · | 5%
10 | -1% | 0% | -2%
11 | -1% | 4% | -11%
12 | -3% | ? | -23%
13 | 0% | -4% | 16%
14 | -2% | -4% | 20%
15 | · | · | ·

Overlap with the part before: 5 entries; new compounds follow.
nr | compound | PTHR1 agonist | Pin1 inhibitor | GLP-1R inv ag
11 | COc1ccccc1NC(=O)c1ccccc1NS(=O)(=O)c1cccs1 | -25% | 1% | ?
12 | COc1ccc(C)cc1NC(=O)c1ccccc1NS(=O)(=O)c1ccc(Cl)s1 | -49% | -5% | 4µM*
13 | Cc1cc(S(=O)(=O)NCc2ccc(N3CCN(C)CC3)cc2)c(C)s1 | i | -16% | 2.2µM*
14 | CN1CCN(c2ccc(CNS(=O)(=O)c3ccc(F)cc3Cl)cc2)CC1 | -16% | -6% | ?
15 | O=C(Nc1ccc2nc(-c3cccs3)c(-c3cccs3)nc2c1)N1CCCCC1 | · | -3% | ·
16 | COc1ccc(/C=N/NC(=O)Cc2csc(Nc3cccc(C(F)(F)F)c3)n2)cc1C | i | -4% | 7.9µM*
17 | COc1cc(/C=N/NC(=O)Cc2csc(C)n2)ccc1OCC(C)C | -4% | 2% | 13%
18 | CCOc1ccc(CCNC(=O)c2nn(C)c3c2CSc2ccccc2-3)cc1 | -32% | 0% | 10µM*
19 | CC(C)N(C(=O)c1nn(C)c2c1CSc1ccccc1-2)C1CCCCC1 | -8% | -1% | 10µM*
20 | COc1cccc(C2c3c(ncn(-c4cccc(C)c4)c3=N)Oc3ccc4ccccc4c32)c1 (stereo not given) | · | 3% | ·
21 | CCOC(=O)C1CCCN(C(=O)c2ccc3c(c2)N(Cc2ccc(Cl)cc2)C(=O)c2ccccc2S3=O)C1 (stereo not given) | -17% | 47% | -27%
22 | CC1=C/C(=N\N=C2\NC(=O)C(CC(=O)Nc3ccccc3F)S2)CC(C)(C)C1 (stereo not given) | i | 8% | ?
23 | O=C(CC1S/C(=N/N=C2CCCCCC2)NC1=O)Nc1ccccc1F (stereo not given) | -6% | -1% | 6%
24 | O=C(Nc1cc2ccc(O)cc2oc1=O)c1ccc(F)cc1 | -16% | 1% | 22%
25 | O=C(Nc1cc2ccccc2oc1=O)c1ccccc1 | -26% | 4% | 7.9µM*
26 | O=C(Nc1ccccc1)Nc1cc(Cl)cc(Cl)c1 | -16%[57.5 µM] | 12% | 2.8µM*
27 | O=C(NCCNC(=O)c1cc(OCC(F)(F)F)ccc1OCC(F)(F)F)Nc1cccc(C(F)(F)F)c1 | -44% | 7% | -24%
28 | O=C(Nc1ccccc1)Nc1cc(OCC(F)(F)F)cc(OCC(F)(F)F)c1 | -37% | 1% | 2.8µM*
29 | C=C1CCN(C(CC(C)C)C(=O)NN2CCOCC2)S(=O)(=O)c2ccccc21 (stereo not given) | · | -1% | ·
30 | CCc1nn(CC(=O)NCCCN(CC)CC)c(=O)c2cc3sc(C)cc3n12 | i | -5% | 10µM*

nr | GLP1R ag | miR-21 reporter | GLP1R cytotox
11 | -1% | 4% | -11%
12 | -3% | ? | -23%
13 | 0% | -4% | 16%
14 | -2% | -4% | 20%
15 | · | · | ·
16 | -1% | -1% | ?
17 | 7% | -6% | -9%
18 | · | 0% | 3%
19 | 7% | 0% | -12%
20 | · | · | ·
21 | -4% | 3% | -4%
22 | 4% | 9% | 11µM*
23 | 0% | -3% | ?
24 | · | -43% | 1%
25 | -3% | -19% | 1%
26 | -47% | ? | ?
27 | -3% | 25% | ?
28 | 0% | ? | 5.6µM*
29 | · | · | ·
30 | 8% | -2% | -16%

Next part.
nr | compound | PTHR1 agonist | Pin1 inhibitor | GLP-1R inv ag
31 | Nc1nc(N)c2c(ccc3c2ccn3Cc2cccc([N+](=O)[O-])c2)n1 | -42% | · | 0.5µM*
32 | COc1cc(NC(=O)CCN2CCN(C/C=C/c3ccccc3)CC2)cc(OC)c1 | i | 2% | 10µM*
33 | COc1ccc(NC(=O)CCN2CCN(C/C=C/c3ccccc3)CC2)cc1 | i | 4% | -18%
34 | Clc1nccnc1N/N=C/c1ccc(Br)cc1 | -26% | 0% | -14%
35 | COc1ccc(/C=N/Nc2nccnc2Cl)cc1 | -51% | -5% | 11µM*
36 | COc1ccc(OCC(=O)N2c3ccc(C)cc3C3CN(C)CCC32)cc1 (stereo not given) | i | 1% | -22%
37 | Cc1ccc2c(c1)C1CN(C)CCC1N2C(=S)NC(=O)c1ccc(Br)cc1 (stereo not given) | -46% | 3% | 11µM*
38 | CC1=Nc2ccccc2/C1=C/c1sc(=N)n(-c2nccs2)c1O | i | ? | 2.5µM*
39 | CC1=Nc2ccccc2/C1=C/c1nc(-c2ccc(C)s2)oc1O | -37% | ? | -6%
40 | CCOc1ccc(NC(=O)c2cc(S(=O)(=O)N3CCc4ccccc43)ccc2F)cc1 | -19% | 9% | -20%
41 | Cc1ccc(Cl)cc1N1CCN(C(=O)C2CCCN(Cc3nc(-c4cccc(Cl)c4)oc3C)C2)CC1 (stereo not given) | i | 8% | 4µM*
42 | Cc1c(Cl)cccc1NC(=O)C(=O)NCCc1csc(-c2ccc(C(F)(F)F)cc2)n1 | i | 1% | 4%
43 | COc1ccc(CCNC(=O)c2ccc3c(c2)CCN3S(=O)(=O)c2ccc(C)cc2)cc1OC | i | 11% | -20%
44 | CCc1ccccc1NC(=O)/C(=C/c1ccco1)c1ccccc1 | -6%[57.5 µM] | 2% | 7.1µM*

nr | GLP1R ag | miR-21 reporter | GLP1R cytotox
31 | -11% | · | ?
32 | 14% | 2% | -19%
33 | 5% | 0% | -12%
34 | 11% | -36% | 2%
35 | -6% | -14% | ?
36 | 7% | -1% | 11%
37 | 0% | -1% | ?
38 | 3% | 16% | ?
39 | -1% | 0% | -12%
40 | · | 18% | 2%
41 | · | 14% | 2%
42 | · | 0% | 7%
43 | · | 19% | 0%
44 | -4% | 1% | -5%

Source: PubChem BioAssay (National Center for Advancing Translational Sciences (NCATS))
